Reference: PubChem BioAssay (NCATS)
Only a part is listed here, and it is no random draw. Results filed as inconclusive are left out. The source made the active and inactive calls. Calls follow the shape of the dose curve; as a rule, active = well fitted curve in the direction sought with a large enough effect; inconclusive = small, poorly fitted or top-dose-only effect, or another doubt; inactive = no such curve, though single readings can be large; an effect the other way counts as inactive or inconclusive.

Columns and labels:
[1] = Cell Viability - LYMP1-002 - Assay at 16 hr (AID 948); conditions: LYMP1-002 lymphoblastoid cell viability; at 92.2 µM (top of the series);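 also: 0% = DMSO alone and full effect = 92 µM tetraoctylammonium bromide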
Summary of the method: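 In this qHTS, lymphoblastoid LYMP1-002 cells (human) receive compounds for 16 hr at 37 C. Viability is taken from CellTiter-Glo ATP luminescence, and AC50 derives from standard Hill fits.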

[2] = MultiTox-Fluor Cytotoxicity Assay - LYMP1-002 - Live Cells (AID 955); conditions: LYMP1-002 lymphoblastoid live-cell protease fluorescence viability; at 46.1 µM (top of the series); also: % is scaled to controls: 0 for no effect and ±100 for the full control effect
Summary of the method: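 Human lymphoblastoid LYMP1-002 cells, 2500/well in complete medium, rested 5 hr at 37 C, then exposed to compounds for 16 hr at 37 C. Live-cell protease cleavage of GF-AFC read by fluorescence (Ex/Em 405/510) after 60 min at room temperature; AC50 from Hill fits.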

[3] = MultiTox-Fluor Cytotoxicity Assay - LYMP1-002 - Dead Cells (AID 960); conditions: LYMP1-002 lymphoblastoid cells, dead-cell protease fluorescence; at 46.1 µM (top of the series);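 also: 0% = DMSO and 100% = tetraoctylammonium bromide; nearly all actives have a fitted effect of over 60% in size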
Summary of the method: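 Human lymphoblastoid cells (LYMP1-002), 2500/well in complete medium, were exposed to compounds for 16 hr at 37 C. Dead-cell protease activity was read as bis-AAF-R110 fluorescence (Ex/Em 485/520), normalized to DMSO and 15 uM tetraoctylammonium bromide; AC50 from Hill fits.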

[4] = MultiTox-Fluor Cytotoxicity Assay - LYMP1-003 - Dead Cells (AID 961); conditions: LYMP1-003 lymphoblastoid cells, dead-cell protease fluorescence; at 92.2 µM (top of the series);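 also: 0% = DMSO and 100% = tetraoctylammonium bromide; nearly all actives have a fitted effect of over 70% in size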
Summary of the method: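 Acute toxicity is scored as increased dead-cell protease activity in human lymphoblastoid LYMP1-003 cells after 16 h compound exposure in complete culture medium. Activity is normalized to DMSO basal and 15 uM tetraoctylammonium bromide as full response.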

[5] = MultiTox-Fluor Cytotoxicity Assay - LYMP1-003 - Live Cells (AID 962); conditions: LYMP1-003 lymphoblastoid cells, MultiTox-Fluor live-cell protease fluorescence; at 92.2 µM (top of the series);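 also: 0% = DMSO only and full loss = 92 µM tetraoctylammonium bromide; cytotoxic hits lower the live-cell protease signal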
Summary of the method: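 LYMP1-003 human lymphoblastoid cells (2500/well) in complete medium were preincubated 5 hr at 37 C, then exposed to compounds for 16 hr at 37 C. Live-cell protease cleavage of GF-AFC read by fluorescence (Ex/Em 405/510); AC50 from Hill fits.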

[6] = Cell Viability - LYMP1-003 - Assay at 24 hr (AID 963); conditions: LYMP1-003 lymphoblastoid cell viability; at 92.2 µM (top of the series);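 also: plate controls were DMSO only for no effect and tetraoctylammonium bromide positive control for full effect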
Summary of the method: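 Human lymphoblastoid LYMP1-003 cells (2500/well) were rested 5 hr at 37 C, then exposed to compounds in complete medium for 24 hr at 37 C. Cellular ATP was quantified by CellTiter-Glo luminescence, and AC50 values came from Hill fits of concentration-response data.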

[7] = Cell Viability - LYMP1-003 - Assay at 40 hr (AID 964); conditions: LYMP1-003 lymphoblastoid viability; at 92.2 µM (top of the series); also: % is scaled to controls: 0 for no effect and ±100 for the full control effect; nearly all actives have a fitted effect of over 60% in size
Summary of the method: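 Human lymphoblastoid LYMP1-003 cells, 2500/well in complete medium, rested 5 hr at 37 C, then exposed to compounds for 40 hr at 37 C. Viability read as intracellular ATP by CellTiter-Glo luminescence; AC50 from Hill fits of concentration-response data.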

[8] = Cell Viability - LYMP2-003 (AID 965); conditions: LYMP2-003 lymphoblastoid cell viability; at 92.2 µM (top of the series);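 also: cells exposed to compounds for 24 h before reading; 0% = DMSO only and full effect = 92 µM tetraoctylammonium bromide; nearly all actives have a fitted effect of over 50% in size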
Summary of the method: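 qHTS, human lymphoblastoid line, 2500 cells/well, complete medium. 24 h drug, 37 C. ATP-based luminescent readout; Hill-fit AC50.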

[9] = Cell Viability - LYMP2-004 (AID 966); conditions: LYMP2-004 lymphoblastoid cell viability, qHTS; at 92.2 µM (top of the series);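 also: plate controls were DMSO only for no effect and tetraoctylammonium bromide control for full effect; nearly all actives have a fitted effect of over 65% in size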
Summary of the method: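 Human lymphoblastoid cells (2500/well) in complete medium were treated with compounds for 24 hr at 37 C, then intracellular ATP was measured by CellTiter-Glo luminescence. AC50 values came from Hill-equation fits of concentration-response data.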

[10] = Cell Viability - LYMP2-005 (AID 967); conditions: LYMP2-005 lymphoblastoid cell viability; at 92.2 µM (top of the series);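 also: plate controls were DMSO only for no effect and 92 µM tetraoctylammonium bromide control for full effect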
Summary of the method: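 Luciferase-based ATP quantitation served as the viability measure in human lymphoblastoid LYMP2-005 cells exposed to test compounds for 24 h at 37 C in complete culture medium. Potency (AC50) was obtained by fitting concentration-response curves with the Hill equation.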

[11] = Cell Viability - LYMP2-009 (AID 968); conditions: LYMP2-009 lymphoblastoid cell viability; at 92.2 µM (top of the series);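 also: 0% = DMSO alone and the full-kill end = tetraoctylammonium bromide at 92 µM; nearly all actives have a fitted effect of over 55% in size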
Excerpt: NIH Chemical Genomics Center [NCGC]
NIH Molecular Libraries Screening Centers Network [MLSCN]
National Institutes of Environmental Health Sciences [NIEHS]
National Toxicology Program [NTP]
We have developed a 1536-well cell-based assay for quantitative high throughput screening (qHTS) against a number of cell lines to determine in vitro cytotoxicity of small molecules. This particular assay uses a human lymphoblastoid cell line (LYMP2-009) purchased from Coriell Institute for Medical Research.
NCGC Assay Protocol Summary:
The CellTiter-Glo luminescent cell viability assay (Promega) is a homogeneous method to measure the number of viable cells in culture. The end point readout of this assay is based on quantitation of intracellular ATP, an indicator of metabolic activity, using the luciferase reaction. […]
Using the CellTiter-Glo luminescent cell viability assay, the amount of cellular ATP was measured in the lymphoblastoid cell line with complete culture medium following compound treatment for 24 hours. […] Library compounds were measured for their ability to cause acute toxicity in the cell line, as reflected by a decrease in intracellular ATP levels, in a concentration-dependent manner. […] AC50 values were determined from concentration-response data modeled with the standard Hill equation. […]
8. Detection; Luminescence; Viewlux plate reader […]

[12] = Cell Viability - LYMP2-011 (AID 969); conditions: LYMP2-011 lymphoblastoid cells viability; at 92.2 µM (top of the series);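 also: 0% = DMSO only and full inhibition = 92 µM tetraoctylammonium bromide; nearly all actives have a fitted effect of over 60% in size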
Summary of the method: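 Human lymphoblastoid cells (2500/well) were plated in complete medium, preincubated 5 hr at 37 C, then exposed to compounds for 24 hr at 37 C. Intracellular ATP was read by CellTiter-Glo luminescence, and AC50 came from Hill-equation concentration-response fits.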

[13] = Cell Viability - LYMP2-013 (AID 970); conditions: LYMP2-013 lymphoblastoid cells viability; at 92.2 µM (top of the series);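 also: 0% = DMSO only and full inhibition = tetraoctylammonium bromide control; nearly all actives have a fitted effect of over 55% in size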
Summary of the method: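 Human lymphoblastoid cells, 2500/well, were preincubated 5 hr at 37 C, then treated with compounds for 24 hr at 37 C in complete medium. Intracellular ATP was read by CellTiter-Glo luminescence; AC50 from Hill-equation fits of concentration-response data.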

[14] = Cell Viability - LYMP2-015 (AID 971); conditions: LYMP2-015 lymphoblastoid cell viability; at 92.2 µM (top of the series);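 also: 0% = DMSO only and full effect = 92 µM tetraoctylammonium bromide; nearly all actives have a fitted effect of over 55% in size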
Summary of the method: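 Human lymphoblastoid cells (2500/well) in complete medium were preincubated 5 hr at 37 C, then compound-treated 24 hr at 37 C. Intracellular ATP was read by CellTiter-Glo luminescence after 30 min at room temperature; AC50 came from Hill-equation concentration-response fits.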

[15] = Cell Viability - LYMP2-017 (AID 972); conditions: LYMP2-017 lymphoblastoid cell viability; at 92.2 µM (top of the series); also: % is scaled to controls: 0 for no effect and ±100 for the full control effect; nearly all actives have a fitted effect of over 55% in size
Summary of the method: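 Human lymphoblastoid cells (2500/well) were seeded in complete medium, held 5 hr at 37 C, then exposed to compounds for 24 hr at 37 C. Intracellular ATP was read by CellTiter-Glo luminescence after 30 min at room temperature, with AC50 values from Hill-equation fits.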

[16] = Cell Viability - LYMP2-019 (AID 973); conditions: LYMP2-019 lymphoblastoid cell line viability; at 92.2 µM (top of the series)
Summary of the method: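 Human lymphoblastoid cells were seeded at 2500 cells/well, preincubated 5 hr at 37 C, then exposed to compounds for 24 hr at 37 C in complete medium. Intracellular ATP was measured by CellTiter-Glo luminescence; AC50 from Hill fits.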

[17] = Cell Viability - LYMP2-021 (AID 974); conditions: LYMP2-021 lymphoblastoid cells viability; at 92.2 µM (top of the series)
Summary of the method: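 Human lymphoblastoid cells (2500/well) were preincubated 5 hr at 37 C, then exposed to compounds for 24 hr at 37 C in complete medium. Intracellular ATP was read by CellTiter-Glo luminescence; AC50 came from Hill-equation fits of concentration-response data.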

[18] = Cell Viability - LYMP2-023 (AID 975); conditions: LYMP2-023 lymphoblastoid cell viability; at 92.2 µM (top of the series)
Summary of the method: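 Human lymphoblastoid cells (2500/well) were preincubated 5 hr at 37 C, then exposed to compounds for 24 hr at 37 C in complete medium. Cellular ATP was read by CellTiter-Glo luminescence, and AC50 came from Hill-equation fits.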

[19] = Cell Viability - LYMP2-025 (AID 976); conditions: LYMP2-025 lymphoblastoid cell viability; at 92.2 µM (top of the series);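 also: plate controls were DMSO only for no effect and tetraoctylammonium bromide control for full effect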
Summary of the method: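 Human lymphoblastoid LYMP2-025 cells (2500/well) were pre-incubated 5 hr at 37 C, then treated with compounds for 24 hr at 37 C in complete medium. Viability was read as intracellular ATP by CellTiter-Glo luminescence; AC50 from Hill fits.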

[20] = Cell Viability - LYMP2-002 (AID 977); conditions: LYMP2-002 lymphoblastoid cell viability, qHTS; at 92.2 µM (top of the series);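 also: plate controls were DMSO only for no effect and 92 µM tetraoctylammonium bromide for full effect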
Summary of the method: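 Luminescent ATP readout (CellTiter-Glo, 30 min room temperature) after 24 h compound exposure at 37 C of a human lymphoblastoid line, 2500 cells/well. AC50 values derived by standard Hill fitting of qHTS concentration-response data.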

ClCCOP(OCCCl)OCCCl
inactive: activity change, negative = cytotoxicity [1] -3.05% | viability change, negative = cytotoxic [2] -0.164% | cytotoxicity (dead cells) [3] 5.2% | cytotoxicity (dead cells) [4] -4.21% | activity change, negative = fewer live cells [5] -2.04% | viability change, negative = cytotoxic [6] 2.91% | activity change, negative = cytotoxic [7] -0.643% | activity change, negative = cytotoxicity [8] 0.407% | activity change, negative = cytotoxicity [9] -1.94% | activity change, negative = viability loss [10] 0.283% | activity change, negative = viability loss [11] -2.5% | viability change, negative = cytotoxic [12] -4.24% | activity change, negative = cytotoxic [13] -6.33% | activity change, negative = lower viability [14] -12.7% | activity change, negative = cytotoxicity [15] -16.5% | activity change, negative = cytotoxicity [16] -3.9% | activity change, negative = cytotoxicity [17] -3.77% | activity change, negative = cytotoxicity [18] -1.04% | activity change, negative = cytotoxicity [19] -8.88% | activity change, negative = cytotoxic [20] -5.85%

CCOP(=O)(Cl)Cl
inactive: activity change, negative = cytotoxicity [1] -1.49% | viability change, negative = cytotoxic [2] 1% | cytotoxicity (dead cells) [3] 0.886% | cytotoxicity (dead cells) [4] -1.57% | activity change, negative = fewer live cells [5] -1.9% | viability change, negative = cytotoxic [6] -3.94% | activity change, negative = cytotoxic [7] -7.35% | activity change, negative = cytotoxicity [8] 13.8% | activity change, negative = cytotoxicity [9] 6.93% | activity change, negative = viability loss [10] -1.74% | activity change, negative = viability loss [11] -16.2% | viability change, negative = cytotoxic [12] -2.9% | activity change, negative = cytotoxic [13] -2.09% | activity change, negative = lower viability [14] -9.05% | activity change, negative = cytotoxicity [15] -11.4% | activity change, negative = cytotoxicity [16] -4.91% | activity change, negative = cytotoxicity [17] -8.02% | activity change, negative = cytotoxicity [18] -1.88% | activity change, negative = cytotoxicity [19] -13.2% | activity change, negative = cytotoxic [20] -1.1%
